Data on 1 compound can be found in ChEMBL document CHEMBL1125338, “Synthesis, chemical, and biological properties of vinylogous hydroxamic acids: dual inhibitors of 5-lipoxygenase and IL-1 biosynthesis” (J Med Chem, 1992).

For the assay, the target named is T1, Polyunsaturated fatty acid 5-lipoxygenase (Rattus norvegicus, UniProt P12527).
T1 sequence (P12527 whole entry): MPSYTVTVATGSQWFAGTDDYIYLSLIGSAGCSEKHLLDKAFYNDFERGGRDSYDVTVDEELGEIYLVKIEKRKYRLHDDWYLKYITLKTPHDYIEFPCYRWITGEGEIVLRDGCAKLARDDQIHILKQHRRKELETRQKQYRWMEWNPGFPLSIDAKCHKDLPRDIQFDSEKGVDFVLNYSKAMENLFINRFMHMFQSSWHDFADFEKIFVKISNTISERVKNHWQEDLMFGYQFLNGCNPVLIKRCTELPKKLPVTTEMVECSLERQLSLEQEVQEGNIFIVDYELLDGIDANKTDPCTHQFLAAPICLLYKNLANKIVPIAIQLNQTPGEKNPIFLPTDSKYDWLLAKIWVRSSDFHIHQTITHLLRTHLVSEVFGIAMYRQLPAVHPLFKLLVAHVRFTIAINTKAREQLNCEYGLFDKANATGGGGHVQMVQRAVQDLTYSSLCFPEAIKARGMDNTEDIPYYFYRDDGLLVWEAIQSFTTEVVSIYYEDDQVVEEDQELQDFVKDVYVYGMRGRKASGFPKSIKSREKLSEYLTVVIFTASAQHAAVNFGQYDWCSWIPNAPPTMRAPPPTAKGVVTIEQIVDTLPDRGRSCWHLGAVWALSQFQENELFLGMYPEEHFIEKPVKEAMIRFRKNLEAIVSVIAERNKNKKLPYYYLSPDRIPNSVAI
As to the kind of experiment: inhibitory activity against 5-lipoxygenase in rat basophilic leukemia cell line. The format is cell-based, RBL-1.

Broadly, the IC50 is the concentration needed to halve the response being measured. A high value points to weaker potency. As for `CN(O)/C=C\C(=O)c1ccc(-c2ccccc2)cc1`, the IC50 worked out at 60 nM.
